Patent US9399032B2, “Methods and compositions for treating degenerative and ischemic disorders” (The General Hospital Corporation, priority 2009, dated 2016)

Tested on: MCH58 fibroblasts
Assay: Glucose versus galactose cell growth screen (metabolic state-dependent lethality)
Conditions: for Sglu/gal (log10 fold change) Score: approximately 10 μM compound, 72 hours, log10 fold change of normalized cell number in glucose versus galactose

| Molecule | Sglu/gal (log10 fold change) Score | inhibitory activity against cell growth in galactose (SAR analysis) (galactose versus glucose) |
| --- | --- | --- |
| CC(=O)Oc1ccc(C(c2ccc(OC(C)=O)cc2)c2ccccn2)cc1 [Bisacodyl] | 0.18 |  |
| Thiethylperazine malate | 0.15 | more active than flufenazine |
